# Yeast mating assay 2: variants of the scFv Ab-91

The target is the same throughout: PDVDLGDISGINAS, from the HR2 region of SARS-CoV-2 spike.

Parent: Ab-91, a human scFv built as VL, a (GGGGS)3 linker, VH. Only the CDRs of the heavy chain vary.
VL: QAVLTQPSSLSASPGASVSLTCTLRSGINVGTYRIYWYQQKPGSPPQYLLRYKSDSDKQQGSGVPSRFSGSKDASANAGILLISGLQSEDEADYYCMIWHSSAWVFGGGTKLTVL
VH: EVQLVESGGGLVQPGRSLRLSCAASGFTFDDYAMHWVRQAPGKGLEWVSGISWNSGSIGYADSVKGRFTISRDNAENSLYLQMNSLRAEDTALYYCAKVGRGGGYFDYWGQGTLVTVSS

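Phage display of a naive human antibody library on the peptide gave the parent. AAYL51 was designed without a model: most single CDR substitutions and a random sample of double and triple ones. AlphaSeq pools MATa yeast showing the antibodies with MATalpha yeast showing the peptide. The frequency of each diploid, read from paired DNA barcodes, reflects how well the two displayed proteins bind. Read counts were normalised to the haploid input and turned into Kd by a linear fit to BCL2-family pairs of known affinity, for each replicate. The assay was run in three technical replicates.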

Variants are written as CDR1, CDR2 and CDR3 of the heavy chain (limits as in the source). Parent: GFTFDDYAMH, GISWNSGSIGYADSVK, VGRGGGYFDY. Numbers give log10(Kd / nM), so 0 is 1 nM and 3 is 1 µM. Smaller is tighter. The mean shown is taken over the replicates in which the pair was detected. An entry "not detected" has no value in the source: the pair was not observed among the diploids in any replicate. This suggests poor binding but is not conclusive.

| CDR-H1 | CDR-H2 | CDR-H3 | mean, log10 nM | seen in | signal with controls |
|---|---|---|---|---|---|
| GFTFDDYAMH | GISWNSGSIGYADSVK | VTRGGWRFDY | not detected | 0/3 | 1/9 |
| GFTFDDYAMH | GIHSNSGSIGYADSVK | WGRGGGYFDY | not detected | 0/3 | 0/9 |
| GFTSDDYKMH | GISWNSGSIGYADSVK | VGRGGGYFDY | 4.23 | 3/3 | 4/9 |
| GRTFDDYAMH | GISWNSGSIGYADQVK | VMRGGGYFDY | 4.99 | 1/3 | 1/9 |
| GFTFDDYAMH | GISWNSGSIGYQDSMK | VGRGGGYFDY | not detected | 0/3 | 0/9 |
| GFTFDDYAMH | GISWNNGSIGYADSVK | VGRGGGYFPY | 4.73 | 2/3 | 3/9 |
| GFTFDDYAMH | GISWSSGSIGYADSVK | VGRGGGYFDM | 1.27 | 3/3 | 0/9 |
| KFCFDDYAMH | GISWNSGSIGYADSVK | VGRGGGYFDY | not detected | 0/3 | 0/9 |
| GFCFDDYAMH | QISWNSGSFGYADSVK | VGRGGGYFDY | not detected | 0/3 | 0/9 |
| DFTFDDYAMH | GISWNSGSIGYADSVK | PGRGGGVFDY | 5.53 | 1/3 | 5/9 |
| GFLFMDYAMH | GISWNSGSIGYADIVK | VGRGGGYFDY | 2.26 | 3/3 | 0/9 |
| GFTFDDYACH | GISWMSGSIGYADSVK | VGRGGGYKDY | 4.77 | 2/3 | 2/9 |
| GFTFDDYAMH | GISWNSGSIGYALSVK | DGRGGGYFDY | 2.15 | 3/3 | 1/9 |
| GFTFDDYAMH | GIAWNSGYIGYADNVK | VGRGGGYFDY | 1.23 | 3/3 | 2/9 |
| GCTFDDYAQH | GISWNSGSIGYADSVK | VGRGGGYFDY | 4.03 | 1/3 | 4/9 |
| GFWFDDYPMH | GISWESGSIGYADSVK | VGRGGGYFDY | 4.80 | 3/3 | 3/9 |
| GFTFDDYAMH | GISWNSFSIGTAMSVK | VGRGGGYFDY | 4.27 | 1/3 | 2/9 |
| GFTFDDYAMH | GISWNSGSIGYADGVK | VGRGGGYFDS | 1.04 | 3/3 | 1/9 |
| GFTFFKYAMH | GISWNSGSIGHADSVK | VGRGGGYFDY | not detected | 0/3 | 1/9 |
| GFTFDDYAMH | GISWNSGSIGYADSVK | VFEDGGYFDY | 4.44 | 3/3 | 7/9 |
| GFTFDDYAMH | GISWVSGSIGYPDSVK | VGRGEGYFDY | not detected | 0/3 | 0/9 |
| GFTFDDYAMH | GISWNSGSIGYADSVK | VGRGAGVQDY | not detected | 0/3 | 0/9 |
| GFAFDDYAMW | GISWNSGSIVYADSVK | VGRGGGYFDY | not detected | 0/3 | 4/9 |
| GFTFDVHAMH | GISWNSGSIGYADSVK | VMRGGGYFDY | 4.21 | 1/3 | 3/9 |
| GFTPDDVAMH | GISWNSGSIGYAHSVK | VGRGGGYFDY | 2.64 | 1/3 | 1/9 |
| YFTFDDYAMH | GISWVSGSIGYADTVK | VGRGGGYFDY | not detected | 0/3 | 1/9 |
| IFTFDDYAMH | GISWNSGSIGYADSVK | VGRGDGYGDY | not detected | 0/3 | 2/9 |
| GFTFDDYAMH | GISWNSGSIGYAISVK | VTRGGGKFDY | not detected | 0/3 | 0/9 |
| GFCFDDYAMH | GISWNSGSIGYADAVK | VGRGKGYFDY | 2.33 | 3/3 | 0/9 |
| GFTFDCYAMH | GISWNSGSIGYMDSVK | VGRGGAYFDY | 2.94 | 3/3 | 6/9 |
| GFTFDDYAMH | AISWNSGSIGYADSVK | VGRGCGYFDY | 4.26 | 1/3 | 0/9 |
| GFTFDLRAMH | GISWNSGSIGYADSVA | VGRGGGYFDY | 3.93 | 1/3 | 1/9 |
| GFYFDDYAMH | GISWNSGPIGYADSVL | VGRGGGYFDY | 4.92 | 2/3 | 3/9 |
| GFTFDDYAMH | GDQWNSGSIGYADSVK | VYRGGGYFDY | 4.77 | 1/3 | 0/9 |
| GFTFDDYAMH | GISSNSGSIGYADSVK | VGRNGGSFDY | 2.07 | 3/3 | 3/9 |
| GFTFDDYAMH | GYSWNQGSIGYADSVK | VGRNGGYFDY | 4.78 | 1/3 | 1/9 |
| GFTFDDFAMH | GISWNSGSIGYAMSVK | VGQGGGYFDY | not detected | 0/3 | 1/9 |
| GFTFDDYAMH | GWSWNSGSIGYADSVK | VNRGGGYFDY | not detected | 0/3 | 0/9 |
| GFTFDDYAMH | GISWNSGSCGYADSVK | VGRGGGQFDY | 1.92 | 2/3 | 0/9 |
| GFTFIDYAMR | GISWNSGSIGYADSVK | VGRGGGMFDY | 5.36 | 1/3 | 6/9 |
| GFTFDDYAMH | GIRWNSGWIGYADSVK | VGRGGGSFDY | 4.01 | 1/3 | 3/9 |
| DFTFDDYAMH | GISWNSGSIGVADSVK | VLRGGGYFDY | 5.17 | 3/3 | 8/9 |
| GFTFDDYSMH | GISWPSGSIGYADSVK | VGRGKGYFDY | not detected | 0/3 | 2/9 |
| GFTFDDYAMH | GISWNSYSIGYADSVK | VGRGGGYFLA | 4.46 | 2/3 | 3/9 |
| GFTFDDYAMH | GISWNSGSIGYADSVH | VGRGQGYFDI | not detected | 0/3 | 1/9 |
| GFTFDDYAMH | GISWNCGSIGYADSVK | VGRGGGVFDY | 2.58 | 3/3 | 6/9 |
| GFTFDDYAMH | GQSWNSGSIGYADSVK | VGRGGGYFMV | not detected | 0/3 | 0/9 |
| GFTEDDSAMH | GISWNSGSIGYADSVK | VGVGGGYFDY | 4.87 | 3/3 | 6/9 |
| GFTFDDYAEH | GISWNSGSIGYADSVL | VTRGGGYFDY | not detected | 0/3 | 0/9 |
| GFTFDDYAMH | GISWNSGSIGYADSGK | VGPGGLYFDY | 4.52 | 2/3 | 5/9 |
| GFCFDDYAMH | GISWNSGSIGYADRVK | VGRGGGYFDA | 1.85 | 3/3 | 2/9 |
| GFTFDDYAME | GISWHSGSIGYADSHK | VGRGGGYFDY | not detected | 0/3 | 0/9 |
| GFTFDDRAMH | GIKWNSGSIGYADSVK | VGRGGGYEDY | not detected | 0/3 | 0/9 |
| GFTFDDYAMH | GISWNSPAIGYAHSVK | VGRGGGYFDY | not detected | 0/3 | 1/9 |
| GFTFDDYAMH | GISWTSGSIGYADSVK | VGRGGGYETY | 4.35 | 1/3 | 2/9 |
| GFTFDDYACH | GISWNSGSIGYADSVK | HGRYGGYFDY | 4.67 | 1/3 | 2/9 |
| GFTFDDYAMH | GISWNSGSIGYADYVK | VGRIRGYFDY | 4.54 | 1/3 | 4/9 |
| GFTFDDYAMH | GISWNNGSIDYADSEK | VGRGGGYFDY | 4.79 | 2/3 | 5/9 |
| GFTFDDYAMH | GISWNYGSIGVADSVY | VGRGGGYFDY | 4.77 | 2/3 | 4/9 |
| GFKFDDYAMH | GISWNSGSIGYADSVK | VVRGGGYFDW | not detected | 0/3 | 0/9 |
| QFTFDDYAMH | GIFWNSGSIGYADSVK | VGRGGGYFFY | not detected | 0/3 | 0/9 |
| GFTFDFYAMI | RISWNSGSIGYADSVK | VGRGGGYFDY | not detected | 0/3 | 0/9 |
| GPVFDDYAMH | GMSWNSGSIGYADSVK | VGRGGGYFDY | 4.40 | 1/3 | 2/9 |

Nonspecific signal, from three strains lacking the peptide, appeared in 21% of pairings of library AAYL51, centred on 4.54 (5% of these signals below 3.26); values are not corrected for it. The control count says in how many pairings with the empty strains this scFv gave a signal.

Source: Engelhart et al. 2022 (doi:10.1038/s41597-022-01779-4), MIT Lincoln Laboratory and A-Alpha Bio; data file from the FLAb repository.